B1: Recombinant human mannose-binding lectin (MBL) [human] / Recombinant human mammalian tolloid-like-1 (mTLL-1) with a C-terminal 6x-His tag [human] (parent)
chain 1: ETVTCEDAQKTCPAVIACSSPGINGFPGKDGRDGTKGEKGEPGQGLRGLQGPPGKLGPPGNPGPSGSPGPKGQKGDPGKSPDGDSSLAASERKALQTEMARIKKWLTFSLGKQVGNKFFLTNGEIMTFEKVKALCVKFQASVATPRNAAENGAIQNLIKEEAFLGITDEKTEGQFVDLTGNRLTYTNWNEGEPNNAGSDEDCVLLLKNGQWNDVPCSTSHLAVCEFPI
chain 2: AATSRTERIWPGGVIPYVIGGNFTGSQRAMFKQAMRHWEKHTCVTFIERSDEESYIVFTYRPCGCCSYVGRRGNGPQAISIGKNCDKFGIVVHELGHVIGFWHEHTRPDRDNHVTIIRENIQPGQEYNFLKMEPGEVNSLGERYDFDSIMHYARNTFSRGMFLDTILPSRDDNGIRPAIGQRTRLSKGDIAQARKLYRCPACGETLQESNGNLSSPGFPNGYPSYTHCIWRVSVTPGEKIVLNFTTMDLYKSSLCWYDYIEVRDGYWRKSPLLGRFCGDKLPEVLTSTDSRMWIEFRSSSNWVGKGFAAVYEAICGGEIRKNEGQIQSPNYPDDYRPMKECVWKITVSESYHVGLTFQSFEIERHDNCAYDYLEVRDGTSENSPLIGRFCGYDKPEDIRSTSNTLWMKFVSDGTVNKAGFAANFFKEEDECAKPDRGGCEQRCLNTLGSYQCACEPGYELGPDRRSCEAACGGLLTKLNGTITTPGWPKEYPPNKNCVWQVVAPTQYRISVKFEFFELEGNEVCKYDYVEIWSGLSSESKLHGKFCGAEVPEVITSQFNNMRIEFKSDNTVSKKGFKAHFFSDKDECSKDNGGCQHECVNTMGSYMCQCRNGFVLHDNKHDCKEAECEQKIHSPSGLITSPNWPDKYPSRKECTWEISATPGHRIKLAFSEFEIEQHQECAYDHLEVFDGETEKSPILGRLCGNKIPDPLVATGNKMFVRFVSDASVQRKGFQATHSTECGGRLKAESKPRDLYSHAQFGDNNYPGQVDCEWLLVSERGSRLELSFQTFEVEEEADCGYDYVELFDGLDSTAVGLGRFCGSGPPEEIYSIGDSVLIHFHTDDTINKKGFHIRYKSIRYPDTTHTKK
B2: Recombinant human mannose-binding lectin (MBL) [human] / Recombinant human bone morphogenetic protein-1 (BMP-1) with a C-terminal FLAG tag [human] (parent)
chain 1: B1 chain 1
chain 2: AATSRPERVWPDGVIPFVIGGNFTGSQRAVFRQAMRHWEKHTCVTFLERTDEDSYIVFTYRPCGCCSYVGRRGGGPQAISIGKNCDKFGIVVHELGHVVGFWHEHTRPDRDRHVSIVRENIQPGQEYNFLKMEPQEVESLGETYDFDSIMHYARNTFSRGIFLDTIVPKYEVNGVKPPIGQRTRLSKGDIAQARKLYKCPACGETLQDSTGNFSSPEYPNGYSAHMHCVWRISVTPGEKIILNFTSLDLYRSRLCWYDYVEVRDGFWRKAPLRGRFCGSKLPEPIVSTDSRLWVEFRSSSNWVGKGFFAVYEAICGGDVKKDYGHIQSPNYPDDYRPSKVCIWRIQVSEGFHVGLTFQSFEIERHDSCAYDYLEVRDGHSESSTLIGRYCGYEKPDDIKSTSSRLWLKFVSDGSINKAGFAVNFFKEVDECSRPNRGGCEQRCLNTLGSYKCSCDPGYELAPDKRRCEAACGGFLTKLNGSITSPGWPKEYPPNKNCIWQLVAPTQYRISLQFDFFETEGNDVCKYDFVEVRSGLTADSKLHGKFCGSEKPEVITSQYNNMRVEFKSDNTVSKKGFKAHFFSEKRPALQPPRGRPHQLKFRVQKRNRTPQ

Experimental findings from article PMC5717261 are described below.

One assay covers variants of B1. Briefly: SPR. As to conditions: with Recombinant human mammalian tolloid-like-1 (mTLL-1) with a C-terminal 6x-His tag [human]; 16 nM MBL injected over immobilized mTLL-1 (310 RU); 50 mM triethanolamine-HCl, 145 mM NaCl, 2 mM CaCl2, 0.005% surfactant P20, pH 7.4; read off a plot.
Take chain 1 ETVTCEDAQKTCPAVIACSSPGINGFPGKDGRDGTKGEKGEPGQGLRGLQGPPGALGPPGNPGPSGSPGPKGQKGDPGKSPDGDSSLAASERKALQTEMARIKKWLTFSLGKQVGNKFFLTNGEIMTFEKVKALCVKFQASVATPRNAAENGAIQNLIKEEAFLGITDEKTEGQFVDLTGNRLTYTNWNEGEPNNAGSDEDCVLLLKNGQWNDVPCSTSHLAVCEFPI [chain 1 K55A]: the response was determined as 22 RU.
As to chain 1 ETVTCEDAQKTCPAVIACSSPGINGFPGKDGRDGTKGEKGEPGQGLRGLQGPPGELGPPGNPGPSGSPGPKGQKGDPGKSPDGDSSLAASERKALQTEMARIKKWLTFSLGKQVGNKFFLTNGEIMTFEKVKALCVKFQASVATPRNAAENGAIQNLIKEEAFLGITDEKTEGQFVDLTGNRLTYTNWNEGEPNNAGSDEDCVLLLKNGQWNDVPCSTSHLAVCEFPI [chain 1 K55E], the response was 13 RU.

The variants in the next assay derive from B2. Briefly: SPR. The conditions noted are these: with Recombinant human bone morphogenetic protein-1 (BMP-1) with a C-terminal FLAG tag [human]; 16 nM MBL injected over immobilized BMP-1 (2,300 RU); 50 mM triethanolamine-HCl, 145 mM NaCl, 2 mM CaCl2, 0.005% surfactant P20, pH 7.4; read off a plot.
On to chain 1 ETVTCEDAQKTCPAVIACSSPGINGFPGKDGRDGTKGEKGEPGQGLRGLQGPPGALGPPGNPGPSGSPGPKGQKGDPGKSPDGDSSLAASERKALQTEMARIKKWLTFSLGKQVGNKFFLTNGEIMTFEKVKALCVKFQASVATPRNAAENGAIQNLIKEEAFLGITDEKTEGQFVDLTGNRLTYTNWNEGEPNNAGSDEDCVLLLKNGQWNDVPCSTSHLAVCEFPI [chain 1 K55A], for which the response turned out to be 25 RU.
Still for that read-out and setting: the result for chain 1 ETVTCEDAQKTCPAVIACSSPGINGFPGKDGRDGTKGEKGEPGQGLRGLQGPPGELGPPGNPGPSGSPGPKGQKGDPGKSPDGDSSLAASERKALQTEMARIKKWLTFSLGKQVGNKFFLTNGEIMTFEKVKALCVKFQASVATPRNAAENGAIQNLIKEEAFLGITDEKTEGQFVDLTGNRLTYTNWNEGEPNNAGSDEDCVLLLKNGQWNDVPCSTSHLAVCEFPI [chain 1 K55E] reads 20 RU.
